Reference: the supplement of paper PMC10307832

Assays:
Assay in all cases: relative viability (nuclei count vs DMSO), 5 days (fraction); higher = more cells survive
Metformin + Foretinib = compound: CN(C)C(=N)NC(=N)N [Metformin] + COc1cc2c(Oc3ccc(NC(=O)C4(C(=O)Nc5ccc(F)cc5)CC4)cc3F)ccnc2cc1OCCCN1CCOCC1 [Foretinib] (partner 0.25 µM); conditions: first compound 100 µM
How it was run: (§1)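 Relative viability was taken as the ratio of nuclei in treated wells to nuclei in vehicle wells. Lung cancer cell lines in 1536-well plates received compounds by pin tool one day after seeding, either one drug alone or a fixed anchor-drug dose plus five library-drug doses (not always all listed) in √10 steps. Nuclei were counted on 4× images after 5 days of treatment, and values are medians of duplicate plates.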

Metformin + Decitabine = compound: CN(C)C(=N)NC(=N)N [Metformin] + Nc1ncn([C@H]2C[C@H](O)[C@@H](CO)O2)c(=O)n1 [Decitabine] (partner 2 µM); conditions: first compound 316.23 µM
How it was run: as §1

Metformin + Phenformin = compound: CN(C)C(=N)NC(=N)N [Metformin] + N=C(N)NC(=N)NCCc1ccccc1 [Phenformin] (partner 250 µM); conditions: first compound 10 µM
How it was run: as §1

Metformin + Trametinib = compound: CN(C)C(=N)NC(=N)N [Metformin] + CC(=O)Nc1cccc(-n2c(=O)n(C3CC3)c(=O)c3c(Nc4ccc(I)cc4F)n(C)c(=O)c(C)c32)c1 [Trametinib] (partner 0.02 µM); conditions: first compound 1000 µM
How it was run: as §1

EBC-1
relative viability (Metformin + Foretinib): 0.118

NCI-H647
relative viability (Metformin + Decitabine): 0.322

NCI-H1666
relative viability (Metformin + Phenformin): 0.557

NCI-H1915
relative viability (Metformin + Trametinib): 0.332
